This note sets out measurements from patent publication US10190138B2, “Methods using short chain peracids to replace antibiotics for controlling fermentation process infection” (Ecolab USA Inc., priority 2012, dated 2019).

For the series the following is noted: pH 4. The text has this:
The issue of low solubility when using long chain peracids has been addressed by increasing the pH to above 7. […] Further, bleaching efficacy decreases proportionally with every pH unit increase over about 7.

Turning to persulfonated oleic acid, the solubility entry is “greater than 50%”.
